From PMC5554889, “Development of a Potent Inhibitor of the Plasmodium Proteasome with Reduced Mammalian Toxicity” (Journal of Medicinal Chemistry, 2017)

By UniProt entry, the sequences of proteins in these tests, tags left out. Where a name states a change or a piece, a line headed by the entry shows the natural chain unless it says otherwise.
UniProt P20618: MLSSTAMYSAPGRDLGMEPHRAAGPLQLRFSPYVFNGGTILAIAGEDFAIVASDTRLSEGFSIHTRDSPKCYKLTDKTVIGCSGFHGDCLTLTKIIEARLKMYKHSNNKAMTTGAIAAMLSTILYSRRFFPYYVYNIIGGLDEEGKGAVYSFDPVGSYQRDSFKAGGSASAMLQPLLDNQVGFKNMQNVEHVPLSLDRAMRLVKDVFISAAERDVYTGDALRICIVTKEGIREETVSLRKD
UniProt P28074: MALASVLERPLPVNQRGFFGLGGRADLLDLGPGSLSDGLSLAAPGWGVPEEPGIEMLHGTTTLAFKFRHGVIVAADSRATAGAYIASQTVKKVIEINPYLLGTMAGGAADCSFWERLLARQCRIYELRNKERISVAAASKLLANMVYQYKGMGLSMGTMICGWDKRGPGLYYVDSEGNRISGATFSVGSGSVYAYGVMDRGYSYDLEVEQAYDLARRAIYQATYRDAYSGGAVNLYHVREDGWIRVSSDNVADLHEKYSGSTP
UniProt A0A5K1K7U1, entry or part of it: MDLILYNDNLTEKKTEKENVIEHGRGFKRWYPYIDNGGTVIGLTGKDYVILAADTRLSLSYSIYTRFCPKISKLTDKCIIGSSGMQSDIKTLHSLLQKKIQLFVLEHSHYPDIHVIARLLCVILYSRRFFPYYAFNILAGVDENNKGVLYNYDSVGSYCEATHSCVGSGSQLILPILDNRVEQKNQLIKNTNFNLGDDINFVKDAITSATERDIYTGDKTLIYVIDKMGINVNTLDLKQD
UniProt Q8IJT1, entry or part of it: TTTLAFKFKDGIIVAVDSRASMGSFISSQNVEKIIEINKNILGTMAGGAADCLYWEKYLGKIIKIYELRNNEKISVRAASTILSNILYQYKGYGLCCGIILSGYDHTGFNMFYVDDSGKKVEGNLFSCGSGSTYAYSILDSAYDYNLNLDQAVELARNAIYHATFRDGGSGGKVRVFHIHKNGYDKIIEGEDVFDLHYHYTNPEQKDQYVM

What was measured:
c20S = target: T1, c20S (Homo sapiens, UniProt P20618+P28074); experiment: Inactivation kinetics, c20S (200 μM Suc-LLVY-AMC); format: biochemical; details: kinact/Ki
T1 construct: purchased Boston Biochem
Method: (§1) To calculate inhibition constants, activity assays were performed as described above except using 200 μM Suc-LLVY-AMC substrate. The rate of AMC release was calculated in the presence of serial dilution of each inhibitor. The rate of product formation was calculated at 30 min intervals for 4 h and normalized to activity DMSO control to calculate inactivation curves. Kobs values for each inhibitor concentration were calculated from inactivation curves, and inhibition constants KI and kinact were calculated by nonlinear regression of Kobs and inhibitor concentration using GraphPad Prism 6 software.

Pf20S = Pf20S (Plasmodium falciparum, UniProt A0A5K1K7U1+Q8IJT1); experiment: Inactivation kinetics, Pf20S (200 μM Suc-LLVY-AMC); format: biochemical
Method: as §1

HepG2 cells = experiment: HepG2 cytotoxicity assay; format: cell-based, human; details: D-amino acid at P3; comparator not given

SMILES	fold loss in potency to c20S (c20S; relative to carmaphycin B) [fold]	kinact (Pf20S) [s⁻¹]	fold reduced toxicity (HepG2 cells)	fold loss in potency to the human c20S proteasome (c20S; relative to analog 1) [fold]
CCCCCC(=O)N[C@H](C(=O)N[C@@H](CCCC)C(=O)N[C@@H](CC(C)C)C(=O)[C@@]1(C)CO1)C(C)C [analog 1]	3	0.00176	–	–
CCCCCC(=O)N[C@@H](C(=O)N[C@@H](CCCC)C(=O)N[C@@H](CC(C)C)C(=O)[C@@]1(C)CO1)C(C)C [analog 18]	–	5.88e-05	up to 100 fold	100
